How the values of series [1] were obtained: Nonspecific binding is routinely defined with 1 μM NKA. […] The reaction is initiated by the addition of the membranes. […] The reaction is terminated by washing the tubes with 10 mL of ice-cold 50 mM Tris HCl using a Brandel cell harvesting system using Whatman GF/B filters which have been soaked at least 4 hours at room temperature in 0.01% (w:v) polyethylenimine to collect the membranes. The filters are deposited in scintillation vials and read in a Beckman LS 6000LL Scintillation Counter.

Amino acid sequences for entries named in this document (tags omitted).
UniProt P21452, whole entry: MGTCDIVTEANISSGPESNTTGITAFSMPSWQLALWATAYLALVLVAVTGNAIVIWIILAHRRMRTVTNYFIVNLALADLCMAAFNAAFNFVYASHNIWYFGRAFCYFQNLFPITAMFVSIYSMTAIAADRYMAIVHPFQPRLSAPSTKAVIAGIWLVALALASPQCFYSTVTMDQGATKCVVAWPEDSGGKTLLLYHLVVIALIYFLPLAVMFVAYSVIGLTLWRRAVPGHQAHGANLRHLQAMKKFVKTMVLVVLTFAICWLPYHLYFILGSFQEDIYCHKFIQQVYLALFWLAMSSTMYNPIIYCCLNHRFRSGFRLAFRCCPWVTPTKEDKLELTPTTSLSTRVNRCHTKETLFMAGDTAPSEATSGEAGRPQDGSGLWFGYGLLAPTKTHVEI

The target of series [2] is T1, human NK2 receptor expressed in Mouse Erythroleukemia (MEL) cells (MELM) (Homo sapiens, UniProt P21452).
T1 construct: expressed in transfected cells
As to the kind of experiment: Binding of 3H-NKA to MELM (membrane characterization, equilibrium-competition). Here is the method:
Human NK2 receptor cDNA was subcloned into a shuttle vector (pMEG3) containing the beta-globin promoter and the 3' portion of the human beta-globin gene (FIG. 1). […] An oligonucleotide linker-adaptor containing an internal Hind III site and a 3' end Eco 0109 site was ligated to the hNK2R cDNA fragment. […] These were annealed and ligated to the hNK2R fragment by standard methods. […] G418 was added to a concentration of 1 mg/mL 24 hours after the transfection to select for stable transfectants.

For the substance [4,5-3H-Leu9]-NKA [Example 3H-NKA], in series [1], the “degradation or metabolism in the receptor-binding assay” value is listed as “no degradation or metabolism is apparent”. Besides, the “specific binding of 3H-NKA to MELM” value in series [2] (3H-NKA 2.5 nM, typical membrane preparation) is on record as 88±4%. This substance yielded a Bmax in series [2] (3H-NKA, equilibrium-competition experiments) of 2229 fmol/mg protein.

Values taken from US5559132A, “Carboxamide derivatives for treating asthma” (Zeneca Limited, priority 1993, dated 1996).
